The text below walks through data of patent US20060025342A1 (OSTEOTROPHIN, published 2006).

The target of assay [1] is T1, human PTH/PTHrP receptor (PTH1 receptor) (human, UniProt Q03431 27-593).
T1 sequence (looked up): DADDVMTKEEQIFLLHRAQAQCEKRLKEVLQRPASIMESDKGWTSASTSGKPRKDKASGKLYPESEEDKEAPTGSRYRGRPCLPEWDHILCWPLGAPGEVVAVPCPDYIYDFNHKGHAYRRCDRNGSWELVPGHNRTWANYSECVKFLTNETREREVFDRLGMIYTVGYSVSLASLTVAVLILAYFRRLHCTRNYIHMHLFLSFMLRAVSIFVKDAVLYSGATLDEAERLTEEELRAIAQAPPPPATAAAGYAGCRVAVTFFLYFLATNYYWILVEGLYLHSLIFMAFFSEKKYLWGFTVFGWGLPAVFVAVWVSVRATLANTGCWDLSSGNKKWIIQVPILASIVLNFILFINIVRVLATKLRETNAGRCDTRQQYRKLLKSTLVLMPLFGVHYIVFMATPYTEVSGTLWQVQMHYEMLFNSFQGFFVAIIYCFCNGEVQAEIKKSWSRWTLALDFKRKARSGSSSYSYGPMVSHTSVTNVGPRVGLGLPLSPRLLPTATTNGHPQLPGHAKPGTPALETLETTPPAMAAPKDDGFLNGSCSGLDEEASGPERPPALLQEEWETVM
Briefly: cell-based or functional assay.

Assay [2] addresses T1, human PTH/PTHrP receptor (PTH1 receptor). Briefly: cell-based or functional assay. This is another data set of the same source.
Assay [3] has the same target. Briefly: competition of 125I-(Tyr36)hPTHrP-(1-36)NH2 binding, human renal cortical membranes, 30 C, 30 min.
For assay [4] the target is unchanged. Kind of assay: competition of 125I-(Tyr36)hPTHrP-(1-36)NH2 binding, SaOS-2 membranes, 30 C, 60 min.
Assay [5] has the same target. Briefly: competition of 125I-(Tyr36)hPTHrP-(1-36)NH2 binding, human renal cortical membranes, 30 C, 30 min. The source holds these as a separate data set.

Like-named read-outs stand apart in the source and are kept apart here.

B1: bovine PTH-(1-34) (peptide, UniProt P01268 32-65, looked up)
peptide: AVSEIQFMHNLGKHLSSMERVEWLRKKLQDVHNF
notes: range 1-34; Synthetic, Bachem; also called bPTH-(1-34); bovine (b)PTH-(1-34)
As for B1, the “Adenylate cyclase (EC50), kidney membranes (human RCM)” value in assay [1] and in assay [2] was 0.26 nM in each case.

B2: rat PTH-(1-34) (peptide, UniProt P04089 32-65, looked up)
peptide: AVSEIQLMHNLGKHLASVERMQWLRKKLQDVHNF
notes: range 1-34; Synthetic, Bachem; also called rPTH-(1-34); rat (r)PTH-(1-34)
Consider B2, for which the half-maximal inhibitory concentration (IC50) in assay [3] came to 0.35 nM; in assay [4], 0.56 nM; in assay [5] it was 0.35 nM.

Broadly, the IC50 is the midpoint of a concentration-inhibition curve.
